Our source for the outcome and AC50 values is PubChem BioAssay (EPA / NIEHS).

Sequences of proteins named here, by UniProt entry; tags and fusion partners are left off.
UniProt P17676, whole entry: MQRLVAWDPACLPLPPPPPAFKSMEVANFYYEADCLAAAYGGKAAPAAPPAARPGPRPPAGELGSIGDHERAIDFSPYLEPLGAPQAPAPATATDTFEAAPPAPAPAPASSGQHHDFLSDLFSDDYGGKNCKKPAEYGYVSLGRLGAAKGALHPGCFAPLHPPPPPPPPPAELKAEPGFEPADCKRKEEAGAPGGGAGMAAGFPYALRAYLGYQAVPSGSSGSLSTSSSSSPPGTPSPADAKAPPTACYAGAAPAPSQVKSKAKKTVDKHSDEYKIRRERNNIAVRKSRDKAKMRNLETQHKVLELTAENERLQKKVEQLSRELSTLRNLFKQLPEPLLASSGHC
UniProt P35869, whole entry: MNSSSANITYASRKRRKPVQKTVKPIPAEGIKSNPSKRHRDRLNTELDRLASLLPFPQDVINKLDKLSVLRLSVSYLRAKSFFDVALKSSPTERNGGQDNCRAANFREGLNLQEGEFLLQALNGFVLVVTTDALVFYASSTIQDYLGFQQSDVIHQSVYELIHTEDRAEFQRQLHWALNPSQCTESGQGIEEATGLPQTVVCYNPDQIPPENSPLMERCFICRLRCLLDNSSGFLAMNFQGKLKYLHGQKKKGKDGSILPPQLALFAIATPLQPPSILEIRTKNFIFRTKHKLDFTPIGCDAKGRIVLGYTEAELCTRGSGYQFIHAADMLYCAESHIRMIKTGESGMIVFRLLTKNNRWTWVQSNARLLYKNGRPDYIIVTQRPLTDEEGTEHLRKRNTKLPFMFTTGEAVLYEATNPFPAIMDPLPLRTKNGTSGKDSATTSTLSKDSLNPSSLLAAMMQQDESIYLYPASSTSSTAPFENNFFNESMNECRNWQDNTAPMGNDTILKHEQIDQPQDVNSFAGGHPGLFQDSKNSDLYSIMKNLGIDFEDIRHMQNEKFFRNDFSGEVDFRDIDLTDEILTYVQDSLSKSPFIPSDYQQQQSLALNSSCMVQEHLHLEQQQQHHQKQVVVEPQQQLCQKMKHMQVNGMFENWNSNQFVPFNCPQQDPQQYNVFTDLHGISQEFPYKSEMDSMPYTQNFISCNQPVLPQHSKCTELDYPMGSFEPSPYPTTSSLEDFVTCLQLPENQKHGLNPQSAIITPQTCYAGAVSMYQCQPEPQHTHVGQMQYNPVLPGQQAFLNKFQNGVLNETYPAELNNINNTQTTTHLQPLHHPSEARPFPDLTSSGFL
UniProt P10276, whole entry: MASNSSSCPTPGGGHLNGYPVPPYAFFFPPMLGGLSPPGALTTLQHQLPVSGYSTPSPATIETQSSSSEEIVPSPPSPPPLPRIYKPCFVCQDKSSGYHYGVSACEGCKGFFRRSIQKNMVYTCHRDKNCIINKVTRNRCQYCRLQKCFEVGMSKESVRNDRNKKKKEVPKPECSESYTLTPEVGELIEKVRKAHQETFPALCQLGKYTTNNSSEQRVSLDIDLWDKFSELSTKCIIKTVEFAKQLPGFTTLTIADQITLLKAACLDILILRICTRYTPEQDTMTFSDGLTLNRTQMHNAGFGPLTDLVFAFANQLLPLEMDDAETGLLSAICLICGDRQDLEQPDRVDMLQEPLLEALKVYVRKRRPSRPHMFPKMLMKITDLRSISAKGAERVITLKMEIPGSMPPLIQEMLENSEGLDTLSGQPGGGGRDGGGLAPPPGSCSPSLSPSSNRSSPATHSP

The entries are a selection whose mix differs from that of the whole data set. Calls of active or inactive are those of the source. How the source made its calls: active means hit-call score of the fitted dose curve at least 0.9, where 1 is the maximum; inactive means score below 0.9.

A short description of assay [1]: ATG_CRE_CIS: Attagene CIS-FACTORIAL HepG2 Assay for human cAMP Responsive Element (CRE) binding protein 3 (AID 2282926). The settings on record: HepG2 CRE cis-reporter, Attagene multiplexed mRNA; actives raise or lower the signal. The essentials: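 Readout: fluorescently labelled reporter transcripts resolved by capillary electrophoresis after RT-PCR, taken 24 h post-dosing in transfected HepG2. Endogenous transcription factor activity drives each cis-element reporter; gain or loss of signal fitted relative to DMSO control.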

Assay [2] has as its target CCAAT/enhancer-binding protein beta (Homo sapiens) (UniProt P17676). The assay is described as follows: ATG_C_EBP_CIS: Attagene CIS-FACTORIAL HepG2 Assay for human CCAAT/Enhancer Binding Protein (C/EBP) beta (AID 2282927). The settings on record: HepG2 Attagene cis-factorial transcription factor reporter; actives raise or lower the signal. On the procedure: (§1) ATG_CIS is a cell-based, multiplexed-readout assay that uses HepG2, a human liver cell line, with measurements taken at 24 hours after chemical dosing in a 24-well plate.ATG_C_EBP_CIS is one of 52 assay component(s) measured or calculated from the ATG_CIS assay. It is designed to make measurements of mRNA induction, a form of inducible reporter, as detected with fluorescence intensity signals by Reverse transcription polymerase chain reaction (RT-PCR) and Capillary electrophoresis technology.Data from the assay component ATG_C_EBP_CIS was analyzed into 1 assay endpoint. This assay endpoint, ATG_C_EBP_CIS, was analyzed with bidirectional fitting relative to DMSO as the negative control and baseline of activity. Using a type of inducible reporter, measures of mRNA for gain or loss-of-signal activity can be used to understand the reporter gene at the transcription factor-level as they relate to the gene CEBPB. Furthermore, this assay endpoint can be referred to as a primary readout, because this assay has produced multiple assay endpoints where this one serves a reporter gene function. To generalize the intended target to other relatable targets, this assay endpoint is annotated to the dna binding intended target family, where the subfamily is basic leucine zipper.
(§2) Human liver HepG2 cells are transiently transfected with multiple reporter transcription units (MRTUs) in 6-well plates using FuGene 6 reagent (Roche; 3 ml FuGene/1 mg DNA). The MRTU constructs are regulated by a cis-regulating element (promoter). […] A major difference between the CIS and TRANS system is that in CIS activities of endogenous TFs are measured, whereas the TRANS assay evaluates changes in activities of exogenous, chimeric NR-Gal4 proteins. […] At the end of 24 hour incubation, total RNA was isolated using TriZol reagent (Invitrogen). The isolated RNA is then reverse-transcribed using oligo(dT) primer and Mo-MLV reverse transcriptase (Invitrogen) with DNAse I (Ambion) treatment for 30 min. The one-tenth of the produced cDNA was amplified by PCR using Taq DNA polymerase (Invitrogen) and two reporter sequence-specific primers. The PCR products were fluorescently labeled by primer extension with 6-arboxyfluorescein (6-FAM) 5'-labeled reporter sequence-specific primer (2 min at 95 C, 20 s at 68 C and 10 min at 72 C) and these products were digested with 5U of HpaI (New England Biolabs) for 2h at 37 C. The fragments were purified using Qiaquick PCR columns (Qiagen), analyzed on an ABI 3130xL genetic analyzer (Applied Biosystems) with peak positions identified by using a set of X-rhodamine (ROX)-labeled MapMarker1000 molecular weight standards (BioVentures). The raw capillary electrophoresis data was processed using Attagraph software (Attagene).

The nature of assay [3]: ATG_CMV_CIS: Attagene CIS-FACTORIAL HepG2 Assay for human CMV (Internal Marker) (AID 2282928).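 Further: endpoint acts as a background internal control marker rather than a target.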 The following applies: HepG2 CMV promoter reporter, transcription factor profiling; actives raise or lower the signal. The essentials: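 24 h chemical treatment, HepG2 with transient multi-reporter transfection; RNA → oligo(dT) RT → PCR → 6-FAM extension → HpaI digest → CE fluorescence. Bidirectional fit, DMSO negative control.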

The nature of assay [4]: ATG_DR4_LXR_CIS: Attagene CIS-FACTORIAL HepG2 Assay for human Liver X Receptor (LXR), DR4 submotif (AID 2282929). The following applies: HepG2 Attagene DR4 cis-reporter, mRNA transcription; actives raise or lower the signal. The essentials: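 DR4 cis-reporter in HepG2, 24 h exposure. Detection: RT-PCR, 6-FAM labelling, CE fragment analysis. Endpoint fitted bidirectionally, DMSO = baseline.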

For assay [5], the target named is Aryl hydrocarbon receptor (Homo sapiens) (UniProt P35869). The assay is described as follows: ATG_Ahr_CIS: Attagene CIS-FACTORIAL HepG2 Assay for human Aryl Hydrocarbon Receptor (Ahr) (AID 2282930). The following applies: HepG2 AhR cis-factorial reporter transcription; actives raise or lower the signal. The essentials:
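HepG2 cells transiently transfected with cis-element-driven multiplexed reporter transcription units; endogenous transcription factor activity measured as reporter mRNA 24 h after dosing. RT-PCR, 6-FAM labelling, HpaI digestion, capillary electrophoresis; bidirectional fitting versus DMSO baseline.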

Assay [6] is described as follows: ATG_AP_1_CIS: Attagene CIS-FACTORIAL HepG2 Assay for human Activator Protein 1 (AP-1) (AID 2282931). The settings on record: HepG2 Attagene cis-factorial AP-1 reporter mRNA; actives raise or lower the signal. The essentials:
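Cis-regulated reporter units transiently expressed in HepG2 report endogenous transcription-factor activity. Signal: reporter mRNA at 24 h, via RT-PCR and fluorescent capillary electrophoresis. Endpoint derived by bidirectional fitting, DMSO as negative control.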

Assay [7] can be described thus: ATG_AP_2_CIS: Attagene CIS-FACTORIAL HepG2 Assay for human Activator Protein 2 (AP-2) (AID 2282932). The following applies: HepG2 AP-2 cis-reporter, Attagene transcription factor profiling; actives raise or lower the signal. The protocol: as §1, with “plate.ATG_AP_2_CIS” for “plate.ATG_C_EBP_CIS”, “ATG_AP_2_CIS” for “ATG_C_EBP_CIS”, “ATG_AP_2_CIS,” for “ATG_C_EBP_CIS,”, “TFAP2A and TFAP2B and TFAP2D.” for “CEBPB.”, “basic helix-turn-helix” for “basic”
as §2

Assay [8] is described as follows: ATG_BRE_CIS: Attagene CIS-FACTORIAL HepG2 Assay for human Bone Morphogenetic Protein (BMP) Response Element (BRE) (AID 2282933). The following applies: HepG2 BMP response element reporter, Attagene transcription factor profiling; actives raise or lower the signal. The essentials:
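Gain- or loss-of-signal was derived by bidirectional fitting against DMSO controls. The signal came from reporter mRNA, measured by RT-PCR and capillary electrophoresis, in HepG2 cells transiently carrying multiple reporter units and dosed for 24 h.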

The target of assay [9] is Retinoic acid receptor alpha (Homo sapiens) (UniProt P10276). The experiment in a line: ATG_DR5_RAR_CIS: Attagene CIS-FACTORIAL HepG2 Assay for human Retinoic Acid Receptor Alpha (RARE), DR5 submotif (AID 2282934).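 On AC50: reporter responds to endogenous RAR alpha beta and gamma in HepG2 not RARA alone.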 The following applies: HepG2 Attagene cis-factorial RARE DR5 reporter, mRNA; actives raise or lower the signal.
Assay [10] in a line: APR_HepG2_NuclearSize_72hr: Apredica 72-hour HepG2 Assay for Nuclear Size (AID 2282925). The following applies: high-content imaging, actives raise or lower the signal. The essentials: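 Compounds (0.39–200 uM, final DMSO 0.5%) were applied to HepG2 for 72 hr. Cells were then formaldehyde-fixed, permeabilized and labelled with Hoechst 33342. Nuclear diameter was quantified from six images per well.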

`CC(C)OP(OC(C)C)OC(C)C`: the call in assay [1], in assay [2], in assay [3], in assay [4], in [5] and in [6] was inactive. The call in [7], in assay [8] and in assay [9] was inactive.

On to `ClCCNCCCl`, for which the compound was called inactive in assay [1], in assay [2], in assay [3], in assay [4], in [5] and in [6]. For the same compound, the compound was called inactive in assay [7], in assay [8] and in [9].

Consider `ClCCOP(OCCCl)OCCCl`, for which the call in [1], in [2], in assay [3], in assay [4], in assay [5] and in assay [6] was inactive. Also, the result in assay [7], in assay [8] and in assay [9] was inactive.

In the case of `O=[N+]([O-])c1ccccc1[N+](=O)[O-]`, the compound was classed as inactive in [10], in assay [1], in [2], in assay [4], in assay [5] and in [7]. Besides, the compound was classed as inactive in [8]. For the same compound, the results for the AC50 in assay [3] and in assay [9] were active: 60.1 µM and active: 7.12 µM, respectively.

`CCOP(=O)(Cl)Cl`: the compound was classed as inactive in [1], in [2], in assay [3], in assay [4], in [5] and in assay [6]. In addition, the compound was classed as inactive in [7] and in [8].
